Source: US8092833B2, “Compositions containing inclusion complexes” (California Institute of Technology, priority 2000, dated 2012)

Assay: Zeta potential of particulate composites modified with PEG-peptide-Ad agents (Example 49)
Type: physicochemical
Settings: 12/pCMV-Luc, 2 CD:1 PEG

Substance: Glucose-PEG3400-CAEAEAEAE-Ad [Glu-PEG-Pep-Ad]
- zeta potential (sign): negative
